The values that follow come from patent publication US20140072613A1 (published 2014).

Common to all, as to experiment: cell-based or functional assay
Assay [1] addresses GRK5(h) (human, UniProt P34947 1-590).
Assay [2] deals with ACK1(h) (human, UniProt Q07912 110-476, limits assumed).
The target of assay [3] is JAK3(h) (human, UniProt P52333 781-1124, limits assumed).
In assay [4] the target is T1, PAR-1Bα(h) (human, UniProt Q7KZI7-4 1-725, limits assumed).
T1 sequence (looked up): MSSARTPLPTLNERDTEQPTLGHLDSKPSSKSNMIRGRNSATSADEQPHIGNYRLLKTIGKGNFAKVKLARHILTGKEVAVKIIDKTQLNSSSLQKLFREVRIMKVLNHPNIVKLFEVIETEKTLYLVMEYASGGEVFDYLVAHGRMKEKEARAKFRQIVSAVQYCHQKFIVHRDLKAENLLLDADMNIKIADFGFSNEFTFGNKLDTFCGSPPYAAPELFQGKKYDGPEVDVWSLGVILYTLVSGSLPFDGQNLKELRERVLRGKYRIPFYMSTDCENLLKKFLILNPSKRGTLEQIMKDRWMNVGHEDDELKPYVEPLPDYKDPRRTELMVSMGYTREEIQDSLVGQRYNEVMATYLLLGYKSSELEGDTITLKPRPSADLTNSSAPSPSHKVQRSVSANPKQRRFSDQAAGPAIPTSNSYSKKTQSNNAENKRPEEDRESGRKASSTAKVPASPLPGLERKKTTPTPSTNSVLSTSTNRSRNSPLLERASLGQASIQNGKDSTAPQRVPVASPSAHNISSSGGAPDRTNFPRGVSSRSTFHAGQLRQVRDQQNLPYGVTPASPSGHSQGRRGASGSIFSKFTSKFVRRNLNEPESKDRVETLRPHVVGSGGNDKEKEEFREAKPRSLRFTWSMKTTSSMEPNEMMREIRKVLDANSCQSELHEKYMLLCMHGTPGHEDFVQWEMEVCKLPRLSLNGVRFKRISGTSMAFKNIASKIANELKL

For assay [5], the target named is PKA(h) (human, UniProt P17612 1-351).
The target in assay [6] is PKGη(h) (human).
Assay [7] has as its target Plk1(h) (human, UniProt P53350 1-603).
The target in assay [8] is Tie2(R849W)(h) (human, UniProt Q02763 771-1124, limits assumed).
Assay [9] concerns the target TLK2(h) (human, UniProt Q86UE8 1-772, limits assumed).
Assay [10] has as its target CK2α2(h) (human, UniProt P19784 1-350).
Assay [11] has as its target cKit(V560G)(h) (human, UniProt P10721 544-976).
Assay [12] has as its target c-RAF(h) (human, UniProt P04049 306-648, limits assumed).
Assay [13] has as its target FAK(h) (human, UniProt Q05397 1-1052, limits assumed).
For assay [14], the target named is FGFR2(N549H)(h) (human, UniProt P21802 456-770, limits assumed).
In assay [15] the target is HIPK3(h) (human, UniProt Q9H422 163-562, limits assumed).
Assay [16] deals with JAK2(h) (human, UniProt O60674 808-1132, limits assumed).
In assay [17] the target is Lck(h) (human, UniProt P06239 1-509).
The target in assay [18] is PAK5(h) (human, UniProt Q9P286 1-719, limits assumed).
For assay [19], the target named is CK1γ1(h) (human, UniProt Q9HCP0 1-422).
The target of assay [20] is Abl(M351T)(h) (human, UniProt P00519 27-1130, limits assumed).

B1: MMI-0300 (peptide)
peptide: FAKLAARLYRKALARQLGVAA
In the case of B1, the “% activity, 100 µM” value in assay [1] came out at 136%; in [2], 104%; in assay [3] it was 121%; in assay [4], 113%; in assay [5], 119%; in assay [6], 103%. Besides, the “% activity, 100 µM” value is 115% in assay [7]; 117% in assay [8]; 114% in assay [9]; 105% in [10]; 102% in [11]; 107% in assay [12]. In addition, the “% activity, 100 µM” value in assay [13] came out at 111%; in assay [14], 116%.

B2: MMI-0400 (peptide)
peptide: KAFAKLAARLYRKALARQLGVAA
Take B2: the “% activity, 100 µM” value in assay [15] came to 105%; in [16], 119%; in assay [17] it was 228%; in assay [18] it was 117%; in [4], 109%; in assay [19] it was 116%. For the same molecule, the “% activity, 100 µM” value in assay [20] is 121%; in assay [14] it was 112%.
